# Antibody variant affinities, Ab-14 heavy chain, assay B

The measurements come from Li et al. 2023 (doi:10.1038/s41467-023-39022-2) through the FLAb antibody collection.

Antigen: PDVDLGDISGINAS, a 14-residue peptide of the SARS-CoV-2 spike HR2 region.

Parent: Ab-14, a human scFv built as VH, a 15-residue (Gly4Ser)3 linker, VL. Only the CDRs of the heavy chain vary.
VH: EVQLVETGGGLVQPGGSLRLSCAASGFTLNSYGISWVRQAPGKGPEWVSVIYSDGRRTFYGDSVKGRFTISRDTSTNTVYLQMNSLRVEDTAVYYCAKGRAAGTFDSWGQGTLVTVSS
VL: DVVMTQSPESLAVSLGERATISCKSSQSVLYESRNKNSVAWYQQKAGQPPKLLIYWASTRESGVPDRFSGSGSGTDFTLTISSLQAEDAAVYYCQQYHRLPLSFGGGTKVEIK

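Designed CDR sequences, proposed from the first random library and measured here. Group labels follow the data file (Ctrl: baseline library sampled from a position-specific scoring matrix, with some repeated check sequences; GPLM: also part of the Gaussian process libraries; Gen: genetic algorithm; a sequence that several methods proposed may carry one label only). AlphaSeq pools MATa yeast showing the antibodies with MATalpha yeast showing the peptide. Mating (16 h, 30 °C) was followed by selection of diploids and sequencing of their barcodes. Scores were corrected for input abundance and mapped to Kd with protein pairs of known affinity run in the same pool. There are six technical replicates.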

Substitutions are numbered in sequence along the VH above, starting at 1 (not Kabat).
Numbers give log10(Kd / nM), so 0 is 1 nM and 3 is 1 µM. Smaller is tighter.
The mean shown is taken over the replicates in which the pair was detected.
An entry "ND" has no value in the source: the pair was not observed among the diploids in that replicate. This suggests poor binding but is not conclusive.
The parent sequence was in this pool as ten entries: three were never detected, three once, and four in most replicates, with averages from 0.34 to 2.37.
The authors averaged sequences with at least three values out of six and counted those with two or fewer as poor binders.
Background: pairings of all heavy chain designs with three empty control strains gave a value in 1% of cases (median 2.08, 5th percentile 0.84). Values in that range, when seen in few replicates, are hard to tell from nonspecific mating. Also given: how often the same scFv was detected with the empty control strains, with their mean in brackets.
A sequence that the file lists under several names has all its replicates listed entry by entry, parted by semicolons.
A sequence measured in both rounds can read differently, since the two assays cover different ranges.

changes	group	log10 Kd, replicates	mean log10 Kd (nM)	control signals
S63Q/S107V	Ctrl	ND / ND / 3.48 / ND / 1.53 / 2.09	2.36	0 of 18
T28N/G99D	Ctrl	ND / ND / ND / ND / ND / ND	ND	0 of 18
S31Q/S107L	Ctrl	0.48 / 0.87 / 0.65 / 1.00 / 0.68 / 0.53	0.70	1 of 18 (1.90)
L29V/A102S	Ctrl	ND / ND / ND / ND / ND / ND	ND	0 of 18
L29P/S31E/S35Q/R56E/Y60F	Ctrl	ND / ND / ND / ND / 0.60 / ND	0.60	0 of 18
S31E/S63E/F105T	Ctrl	ND / ND / 1.79 / 1.96 / ND / ND	1.87	0 of 18
T28D/G61S/A102P	Ctrl	1.20 / 0.57 / ND / 0.88 / 1.06 / 0.91	0.92	0 of 18
S31D/R56L/A101Q	Ctrl	ND / ND / ND / ND / ND / ND	ND	0 of 18
S31Q/S63D/S107Q	Ctrl	ND / ND / 1.34 / ND / 1.09 / ND	1.22	0 of 18
T28D/R56F/G61S/G99H/R100Q/F105N	Ctrl	ND / ND / ND / ND / ND / ND	ND	0 of 18
R100E/S107M	Ctrl	1.68 / ND / 0.16 / 1.67 / 0.31 / 0.83	0.93	0 of 18
T28G/R100T/A102K/S107T	Ctrl	ND / ND / ND / ND / ND / ND	ND	0 of 18
A101H/F105W	Ctrl	ND / ND / ND / 1.88 / ND / ND	1.88	0 of 18
Y32T/R56E/A101R	Ctrl	ND / ND / ND / ND / ND / ND	ND	1 of 18 (4.25)
S35T/F59A	Ctrl	ND / ND / ND / ND / ND / ND	ND	0 of 18
T28N/D106I	Ctrl	ND / ND / ND / ND / ND / ND	ND	0 of 18
R56I/K65D	Ctrl	ND / 1.77 / ND / ND / ND / ND	1.77	0 of 18
S53A/G61S/V64T	Ctrl	1.21 / 0.91 / 1.16 / 1.25 / 0.87 / 1.27	1.11	0 of 18
S31Q/I51H/S107Q	Ctrl	ND / ND / ND / ND / ND / ND	ND	0 of 18
N30Q/S31E/Y60I/R100G	Ctrl	1.11 / 1.54 / 0.90 / 2.02 / ND / 1.84	1.48	0 of 18
T58C/R100F/T104L/S107W	Ctrl	ND / ND / ND / ND / ND / ND	ND	0 of 18
N30S/R100T	Ctrl	ND / 0.99 / ND / 0.67 / 2.70 / 1.74	1.53	0 of 18
L29I/R100Y/F105W	Ctrl	ND / ND / ND / ND / ND / ND	ND	1 of 18 (1.87)
S107W	Ctrl	ND / ND / ND / ND / ND / ND	ND	0 of 18
T104V/D106E	Ctrl	1.07 / 0.63 / 0.59 / 0.54 / 0.38 / 0.62	0.64	0 of 18
R56E/F105G	Ctrl	ND / ND / ND / ND / ND / ND	ND	0 of 18
L29I/R56Y/R100W/A101N/D106F	Ctrl	ND / ND / ND / ND / ND / ND	ND	0 of 18
T28S/G61Q/S63K	Ctrl	ND / 2.09 / 1.19 / 0.40 / 0.86 / ND	1.14	0 of 18
F27T/N30L/G61Q/S63N	Ctrl	ND / ND / ND / ND / ND / ND	ND	0 of 18
F105L/D106W/S107M	Ctrl	ND / ND / ND / ND / ND / ND	ND	0 of 18
T28D/F59A/A102P/T104Y	Ctrl	ND / ND / ND / ND / ND / ND	ND	0 of 18
S31E/V64F	Ctrl	0.61 / 0.64 / 0.55 / 0.22 / 0.48 / 0.36	0.48	1 of 18 (2.37)
T28Q/N30E/A101L/S107L	Ctrl	1.43 / 1.68 / ND / 1.14 / 0.74 / 1.36	1.27	0 of 18
T28G/S31N	Ctrl	ND / 0.75 / ND / 2.26 / ND / ND	1.51	0 of 18
A102S/T104H	Ctrl	ND / ND / ND / ND / ND / ND	ND	0 of 18
T28S/L29I/S31E/R56L/G61S	Ctrl	0.56 / 0.34 / 0.59 / 0.43 / 0.31 / 0.75	0.50	0 of 18
R100T/S107Q	Ctrl	ND / ND / ND / ND / ND / ND	ND	0 of 18
G26K/N30S/R56M/F59A	Ctrl	ND / ND / ND / ND / ND / ND	ND	0 of 18
A102T/D106R/S107L	Ctrl	ND / ND / ND / ND / ND / ND	ND	0 of 18
S31E/R100A	Ctrl	ND / ND / ND / ND / ND / ND	ND	0 of 18
T28D/S63R/A101F	Ctrl	1.73 / 1.14 / 1.51 / 0.94 / 0.47 / 1.43	1.20	0 of 18
T28D/A101C/D106V	Ctrl	ND / ND / ND / ND / ND / ND	ND	0 of 18
S53R/R56M/S63E/D106K	Ctrl	ND / ND / ND / ND / ND / ND	ND	0 of 18
N30K/S31D/T58E	Ctrl	ND / ND / ND / ND / 1.26 / 0.68	0.97	0 of 18
S31E	Ctrl+GPLM_Gen	0.74 / 0.48 / 0.62 / 0.59 / 0.60 / 0.29; ND / ND / ND / ND / ND / ND	0.55	0 of 36
G26Q/T28S	Ctrl	1.70 / 1.91 / ND / 1.76 / 2.30 / 1.47	1.83	0 of 18
R56K/D62T/G103D	Ctrl	ND / ND / ND / ND / ND / ND	ND	0 of 18